Drawing on ChEMBL document CHEMBL5053560, “Nanoparticular Inhibitors of Flavivirus Proteases from Zika, West Nile and Dengue Virus Are Cell-Permeable Antivirals” (ACS Med Chem Lett, 2021), this text covers inhibition for one compound.

This assay has as its system Dengue virus. The experiment in a line: Antiviral activity against Dengue virus infected in human Huh-7 cells assessed as inhibition of viral replication at 12.5 uM measured after 48 hrs by plaque assay relative to control. Format: functional.

For `NC(=O)c1ncn([C@@H]2O[C@H](CO)[C@@H](O)[C@H]2O)n1` [RIBAVIRIN], the inhibition at 12.5 µM worked out at 75%.
